Data from patent US6348445B1, “Biologically active peptides with reduced toxicity in animals and a method for preparing same” (priority 1992, dated 2002).
Values after ≈ are worked out from the molar mass of the structure shown.

Columns and labels:
Format in all cases: cell-based
[1] = test system: MDA-435 human breast carcinoma cells; settings: 24 h
Method: (§1) Human lung carcinoma cells, A-549 (ATCC), and human breast carcinoma cells, MDA-435 (from Sandoz), were grown in Ham's F12K medium (GIBCO-BRL) supplemented with […] fetal bovine serum. Human chronic myelogenous leukemia cells, K-562 (ATCC), were maintained in RPMI 1640 medium (GIBCO-BRL) supplemented with 10% fetal bovine serum. Human melanoma cell line, WM 1617 (from the Wistar Institute), was maintained in 2% Tumor media.
(§2) Cytotoxicity assays were performed on the cell lines described above using CytoLite (Packard Instrument Company) following the manufacture's instruction. Briefly, 2×10^4cells/well were seeded into black, 96-well ViewPlates (Packard Instrument Company) in 100 μl/well growth medium. Ser. dilutions of Magainin peptides were then added into the cells and the plates incubated for 24 hours in a humidified 5% CO2 atmosphere at 37° C. Following incubation, 25 μl/well of CytoLite activator solution was added followed by 125 μl/well of amplifier solution. Luminescence was measured on TopCount Microplate Scintillation and Luminescence counter (Packard Instrument Company) using a 1 second count time in SPC (single photon counting) mode at 25 ° C. All assays were performed in triplicate. The peptides tested in this assay were MSI-78(SEQ ID NO: 154 —NH2), MSI-1858(SEQ ID NO: 154 —NH2 Methane Sulfonate), MSI-344(SEQ ID NO: 154 —OH) and MSI-1857(SEQ ID NO: 154 —OH Methane Sulfonate). The results of these assays are shown in FIGS. 2-9 with the corresponding IC50 values in Table VIII. In all cases the activity of the methane sulfonated peptide was as good or better than the parent peptide as indicated by both the survival curves and the IC50 values.

[2] = test system: A-549 human lung carcinoma cells; settings: 24 h
Method: as §1, §2

[3] = test system: WM 1617 human melanoma cells; settings: 24 h
Method: as §1, §2

[4] = test system: K-562 human chronic myelogenous leukemia cells; settings: 24 h
Method: as §1, §2

[5] = test system: E. coli ATCC strain 25922; assay: Minimal Inhibitory Concentration, microtiter broth dilution
Text: (§3) Table I, which follows, indicates the Minimal Inhibitory Concentration (MIC) in […] of various peptides against S.aureus strain ATCC 25923(S), P. aeruginosa strain ATCC 27853(P), E. coli ATCC strain 25922(E), and C. 4albicans (CA). […] The peptides are unsubstituted at the N-terminal; substituted with an acetyl group at the N-terminal, as indicated by Ac-; substituted with an octanoyl group at the N-terminal, as indicated by Oct-; substituted with spinogosine, as indicated by Sph-; substituted with a succinyl group, as indicated by Suc-; substituted with a hexanoyl group, as indicated by Hex-; substituted with a heptanoyl group, as indicated by Hep-; substituted with a valeryl group, as indicated by Val-; substituted with a myristryl group, as indicated by Myr-; or substituted with an ibuprofyl group, as indicated by Ibu-; […]
(§4) The stock peptide solution was diluted in serial dilutions (1:2) down the wells of a microtiter plate so that the final concentrations of peptides in the wells were 0.25, 0.50, 1, 2, 4, 8, 16, 32, 64, 128 and 256 μg/ml. […] The plates were incubated for 16-20 hours at 37° C., and the minimal inhibitory concentration (MIC) for each peptide was determined. […]
(§5) The in vitro anti-microbial activities of the methane sulfonate derivatives were determined according to the methods described in Examples 1 and 2. […]

[6] = test system: P. aeruginosa strain ATCC 27853
Text: as §3, §4, §5

S. aureus ATCC 29213 = test system: S. aureus ATCC 29213

CC[C@H](C)[C@H](NC(=O)CNCS(=O)(=O)O)C(=O)NCC(=O)N[C@@H](CCCCNCS(=O)(=O)O)C(=O)N[C@@H](Cc1ccccc1)C(=O)N[C@@H](CC(C)C)C(=O)N[C@@H](CCCCNCS(=O)(=O)O)C(=O)N[C@@H](CCCCNCS(=O)(=O)O)C(=O)N[C@@H](C)C(=O)N[C@@H](CCCCNCS(=O)(=O)O)C(=O)N[C@@H](CCCCNCS(=O)(=O)O)C(=O)N[C@@H](Cc1ccccc1)C(=O)NCC(=O)N[C@@H](CCCCNCS(=O)(=O)O)C(=O)N[C@@H](C)C(=O)N[C@@H](Cc1ccccc1)C(=O)N[C@H](C(=O)N[C@@H](CCCCNCS(=O)(=O)O)C(=O)N[C@H](C(=O)N[C@@H](CC(C)C)C(=O)N[C@@H](CCCCNCS(=O)(=O)O)C(=O)N[C@@H](CCCCNCS(=O)(=O)O)C(N)=O)[C@@H](C)CC)C(C)C [MSI-1858]
IC50 [1]: 4 µM
IC50 [2]: 4 µM
IC50 [3]: 4 µM
IC50 [4]: 7 µM
MIC E. coli ATCC 25922 [5]: 32 µg/mL (≈ 9.36 µM)
MIC P. aeruginosa ATCC 27853 [6]: 32 to 64 µg/mL
MIC S. aureus ATCC 29213 (S. aureus ATCC 29213): 32 µg/mL (≈ 9.36 µM)
